Values quoted from earlier work as cited in US20110130466A1, “USE OF RASAGILINE FOR THE TREATMENT OF PROGRESSIVE SUPRANUCLEAR PALSY” (priority 2009, published 2011).

Protein sequences, listed by entry. Tags and fused reporters are not part of them.
UniProt P27338, whole entry: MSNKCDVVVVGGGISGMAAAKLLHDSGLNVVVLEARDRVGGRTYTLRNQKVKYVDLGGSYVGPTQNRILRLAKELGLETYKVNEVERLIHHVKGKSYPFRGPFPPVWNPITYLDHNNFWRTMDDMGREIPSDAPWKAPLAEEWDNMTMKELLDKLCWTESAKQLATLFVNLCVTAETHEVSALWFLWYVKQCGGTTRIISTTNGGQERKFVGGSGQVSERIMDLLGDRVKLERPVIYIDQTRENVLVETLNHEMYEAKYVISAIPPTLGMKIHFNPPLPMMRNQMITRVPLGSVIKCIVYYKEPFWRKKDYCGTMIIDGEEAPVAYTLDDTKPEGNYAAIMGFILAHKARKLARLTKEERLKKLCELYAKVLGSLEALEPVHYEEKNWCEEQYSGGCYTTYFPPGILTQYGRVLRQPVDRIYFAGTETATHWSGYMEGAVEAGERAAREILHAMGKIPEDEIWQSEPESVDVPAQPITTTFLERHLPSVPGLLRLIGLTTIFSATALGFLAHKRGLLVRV

Biological target: monoamine oxidase (MAO) B (Homo sapiens, UniProt P27338)
Conditions: Finberg et al. 2002; cited from earlier work

For `C#CCN[C@@H]1CCc2ccccc21` [rasagiline, R(+)-N-propargyl-1-aminoindan], the “MAO B inhibitor activity” value is listed as “potent”.
